{
  "sequences": {"note": "Protein sequences, listed by entry. Tags and fused reporters are not part of them. Lines headed by an entry give the natural chain unless they say otherwise; changes in a name come on top.", "UniProt P11509": "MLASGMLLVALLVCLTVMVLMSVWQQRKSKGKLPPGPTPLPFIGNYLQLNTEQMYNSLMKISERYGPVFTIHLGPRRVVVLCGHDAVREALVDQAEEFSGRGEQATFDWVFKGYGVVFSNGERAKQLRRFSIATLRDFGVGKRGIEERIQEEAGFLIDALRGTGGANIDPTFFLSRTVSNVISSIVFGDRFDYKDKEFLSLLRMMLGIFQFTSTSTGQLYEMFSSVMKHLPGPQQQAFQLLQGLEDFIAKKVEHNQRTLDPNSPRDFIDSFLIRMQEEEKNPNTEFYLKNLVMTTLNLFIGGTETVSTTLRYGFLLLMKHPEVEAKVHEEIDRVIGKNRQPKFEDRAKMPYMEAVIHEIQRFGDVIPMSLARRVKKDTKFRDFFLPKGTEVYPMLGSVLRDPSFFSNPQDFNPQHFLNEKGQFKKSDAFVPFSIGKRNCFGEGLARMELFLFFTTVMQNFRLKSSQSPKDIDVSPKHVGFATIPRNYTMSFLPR"},
  "source": "patent US8906943B2",
  "about": "“Synthetic compounds and methods to decrease nicotine self-administration” (priority 2010, dated 2014)",
  "target": "human CYP2A6 (Homo sapiens (Human), UniProt P11509)",
  "assay": "Inhibition of human CYP2A6-mediated coumarin 7-hydroxylation",
  "assay_type": "biochemical",
  "conditions": "Table 1; purified human CYP2A6, nine concentrations; read-out: hCYP2A6 IC50",
  "method": "Our first studies were with highly purified human CYP2A6 that provided a convenient and relatively high-throughput measure of CYP2A6 inhibition. Full dose-response IC50 values (nine concentrations) were determined (Table 1).",
  "data": [
    {"smiles": "NCc1ccc(-c2cccnc2)s1", "note": "[Compound 4]", "values": [
      {"measurement": "IC50", "value": 160, "unit": "nM"}
    ]}
  ]
}
